Laboratory results as given in patent US4112073A, “Medicinal composition comprising adrenal cortical hormone and thyroid stimulating hormone releasing hormone” (Takeda Chemical Industries, Ltd., priority 1975, dated 1978).

Test: Relative clinical effect of ACH (dexamethasone equivalent)
From the text: The relative amounts of ACH and TSH-releasing hormones may be determined according to the particular dosage form, the disease to be treated and other factors. Generally speaking, the ratio is about 1 (dexamethasone equivalent): 0.05 to 5, advantageously 0.05 to 2, and especially 0.1 to 1. The preferred ratio in each dosage form is; in the case of injections, about 1 (dexamethasone equivalent): 0.05 to 1, advantageously 0.1 to 1; in the case of oral preparations, about 1 (dexamethasone equivalent): 1 to 5, advantageously 1 to 2; and in the case of topical preparations, infusions and implants, about 1 (dexamethasone equivalent): 0.5 to 5, advantageously 0.5 to 2. The `dexamethasone equivalent` is an index number representing the relative clinical effect of any ACH with the effect of dexamethasone being taken as unity.

C[C@@H]1C[C@H]2[C@@H]3C[C@H](F)C4=CC(=O)C=C[C@]4(C)[C@@]3(F)[C@@H](O)C[C@]2(C)[C@@]1(O)C(=O)CO [Flumethasone, 6α, 9α-difluoro-16α-methylprednisolone]
Equivalent (dexamethasone equivalent): 0.2
